# Only a part is listed here, and it is no random draw. Calls of active or inactive are those of the source. Rule as the data show it: active = inhibition above about 37%; inactive = the rest.
# Protein sequences, listed by entry. Tags and fused reporters are not part of them.
# UniProt P63165, whole entry: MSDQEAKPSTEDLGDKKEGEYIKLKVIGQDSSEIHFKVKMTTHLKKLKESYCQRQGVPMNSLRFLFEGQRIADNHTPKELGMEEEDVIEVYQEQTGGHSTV
# Biological target: Small ubiquitin-related modifier 1 (Homo sapiens) (UniProt P63165)
# Assay: modulators of SUMO1 protein-protein interactions, primary screen, biochemical, uHTS (AID 602429)
# Details: SUMO1 binding to a labelled peptide, TR-FRET, 1 h; at 20 µM; stronger effect = higher value
row,Structure (SMILES),inhibition
1,Fc1ccccc1NC1CCN(Cc2ccccc2)CC1,inactive: -1.69%
2,Cc1ccc(C(=O)NCC2(N3CCCCC3)CCCCC2)o1,inactive: 1.97%
3,Cc1ccc(NC2(C#N)CCN(Cc3ccccc3)CC2)cc1,inactive: -8.96%
4,CCC(c1nnnn1C1CCCCC1)N1CCC(n2c(=O)[nH]c3ccccc32)CC1 (stereo not given),inactive: -2.21%
5,COc1cccc(C(c2nnnn2C2CCCCC2)N2CCC(n3c(=O)[nH]c4ccccc43)CC2)c1OC (stereo not given),inactive: 3.45%
6,CC(=O)N(c1ccccc1)C1CCNCC1,inactive: -0.0709%
7,COc1cc(OC)cc(C(=O)NCC2(N3CCCCC3)CCCCC2)c1,inactive: -1.38%
8,O=c1[nH]c2ccccc2n1C1CCN(C(c2ccnc3ccccc23)c2nnnn2C2CCCCC2)CC1 (stereo not given),inactive: 6.19%
9,CN(C)c1ccc(C(=O)NCC2(N3CCCCC3)CCCCC2)cc1,inactive: 2.63%
10,Cn1c(=O)[nH]cc(N(CCCl)CCCl)c1=O,inactive: -0.172%
11,O=C(NCC1(N2CCCCC2)CCCCC1)c1ccco1,inactive: -6.02%
12,CCN1CCC(Nc2cccc(F)c2)CC1,inactive: 0.427%
13,COc1ccc(C(c2nnnn2C2CCCCC2)N2CCC(n3c(=O)[nH]c4ccccc43)CC2)cc1 (stereo not given),inactive: 12.6%
14,CC(C)(C)n1nnnc1C(c1ccnc2ccccc12)N1CCC(n2c(=O)[nH]c3ccccc32)CC1 (stereo not given),inactive: 4.18%
15,Cc1ccccc1NC1(C#N)CCN(Cc2ccccc2)CC1,inactive: -2.63%
16,O=C(O)C1(Nc2ccccc2)CCN(Cc2ccccc2)CC1,inactive: 2.55%
17,NN(c1ccccc1)C1CCN(CCc2ccccc2)CC1,inactive: 6.5%
18,CC(C)(C)OC(=O)N1CCC(Nc2ccccc2)CC1,inactive: -2.72%
19,O=c1[nH]c2ccccc2n1C1CCN(C(c2cc3ccccc3o2)c2nnnn2C2CCCC2)CC1 (stereo not given),inactive: -8.2%
20,CCCOc1ccc(C(=O)NCC2(N(C)C)CCCCC2)cc1,inactive: 3.38%

row,Structure (SMILES),inhibition
1,CN1CCC(Nc2ccc(F)c(Cl)c2)CC1,inactive: 4.01%
2,CCOc1ncccc1C(=O)NCC1(N2CCOCC2)CCCCC1,inactive: 3.36%
3,CN1CCC(Nc2ccc(Cl)cc2)CC1,inactive: 0.334%
4,COc1cccc(C(c2nnnn2C2CCCC2)N2CCC(n3c(=O)[nH]c4ccccc43)CC2)c1OC (stereo not given),inactive: 4.09%
5,COc1cc(OC)cc(C(=O)NCC2(N3CCOCC3)CCCCC2)c1,inactive: 3.46%
6,COc1cccc(C(=O)N(c2cc(C)cc(C)c2)C2CCN(C(=O)OC(C)(C)C)CC2)c1,inactive: -1.73%
7,CCC(CO)(C(=O)OC1CN2CCC1CC2)c1ccccc1 (stereo not given),inactive: 0.47%
8,O=c1[nH]c2ccccc2n1C1CCN(C(c2cccs2)c2nnnn2C2CCCCC2)CC1 (stereo not given),inactive: -2.62%
9,O=c1[nH]c2ccccc2n1C1CCN(C(c2ccnc3ccccc23)c2nnnn2C2CCCC2)CC1 (stereo not given),inactive: -0.587%
10,COc1ccc(C(=O)NCC2(N3CCOCC3)CCCCC2)cc1OC,inactive: -5.88%
11,COc1cc(C(=O)NCC2(N3CCOCC3)CCCCC2)cc(OC)c1C,inactive: -2.79%
12,CCCCn1nnnc1C(c1ccccc1)N1CCC(n2c(=O)[nH]c3ccccc32)CC1 (stereo not given),inactive: 4.47%
13,O=C(NCC1(N2CCOCC2)CCCCC1)c1cc(Br)ccc1Cl,inactive: 1.54%
14,O=c1[nH]c2ccccc2n1C1CCN(C(c2cccs2)c2nnnn2C2CCCC2)CC1 (stereo not given),inactive: 0.903%
15,O=C(OC1CN2CCC1CC2)C1c2ccccc2C=Cc2ccccc21 (stereo not given),inactive: 0.285%
16,CCCCn1nnnc1C(c1cccc(OC)c1OC)N1CCC(n2c(=O)[nH]c3ccccc32)CC1 (stereo not given),inactive: 0.416%
17,CCOC(=O)N1CCC(Nc2ccc(C)cc2)CC1,inactive: 0.45%
18,COc1cccc(C(c2nnnn2C(C)(C)C)N2CCC(n3c(=O)[nH]c4ccccc43)CC2)c1OC (stereo not given),inactive: 2.12%
19,N/C(=N\O)c1c(N)no[n+]1[O-],inactive: -2.65%
20,N#Cc1ccc(C(=O)NCC2(N3CCCCC3)CCCCC2)cc1,inactive: -2.54%

row,Structure (SMILES),inhibition
1,CC(C)(C)OC(=O)N1CCC(N(C(=O)c2ccccc2)c2ccc(Cl)cc2)CC1,inactive: -3.11%
2,CC(C)(C)n1nnnc1C(c1cccc2ccccc12)N1CCC(n2c(=O)[nH]c3ccccc32)CC1 (stereo not given),inactive: 7.93%
3,CN(C)C1(CNC(=O)c2cccc(C#N)c2)CCCCC1,inactive: 3.01%
4,Cc1cc(N(CCCl)CCCl)ccc1C=O,inactive: 35.7%
5,CCCN1CCC(Nc2cc(OC)cc(OC)c2)CC1,inactive: -6.26%
6,O=c1[nH]c2ccccc2n1C1CCN(C(c2ccccc2)c2nnnn2C2CCCC2)CC1 (stereo not given),inactive: 5.95%
7,c1ccc(CN2CCC(Nc3ccccc3)CC2)cc1,inactive: -2.14%
8,O=c1[nH]c2ccccc2n1C1CCN(C(c2ccccc2OC(F)(F)F)c2nnnn2C2CCCC2)CC1 (stereo not given),inactive: -0.931%
9,N#CC1(Nc2ccccc2)CCN(CCc2ccccc2)CC1,inactive: -0.741%
10,CCN1CCC(Nc2ccc(Cl)cc2)CC1,inactive: 3.72%
11,CSc1ccc(C(=O)NCC2(N3CCOCC3)CCCCC2)cc1,inactive: 2.68%
12,O=C(NCC1(N2CCCCC2)CCCCC1)c1cccc([N+](=O)[O-])c1,inactive: -15%
13,O=C(NCC1(N2CCCCC2)CCCCC1)c1ccc(OC(F)F)cc1,inactive: 3.41%
14,CC(C)(C)n1nnnc1C(c1ccccc1OC(F)(F)F)N1CCC(n2c(=O)[nH]c3ccccc32)CC1 (stereo not given),inactive: 4.6%
15,COc1cc(C(=O)NCC2(N3CCCCC3)CCCCC2)ccc1OC(F)F,inactive: 5.03%
16,O=C(NCC1(N2CCOCC2)CCCCC1)c1cc(=O)[nH]c2ccccc12,inactive: 4.65%
17,CN1CCN(CCOC(=O)C(O)(c2ccccc2)c2ccccc2)CC1,inactive: 0.0642%
18,CC(C)c1ccc(C(=O)NCC2(N3CCOCC3)CCCCC2)cc1,inactive: -0.577%
19,COc1ccc(NC2CCN(C(=O)OC(C)(C)C)CC2)cc1,inactive: -3.3%
20,CCCCn1nnnc1C(c1cccc2ccccc12)N1CCC(n2c(=O)[nH]c3ccccc32)CC1 (stereo not given),inactive: 3.61%
